{
  "source": "patent US20120309692A1",
  "biological_target": "recombinant human glandular kallikrein 2 (hK2) (human) (UniProt P20151)",
  "experiment": "cell-based or functional assay",
  "data": [
    {"substance": "Aprotinin (from UniProt P00974 36-93)", "values": [
      {"measurement": "hK2 Activity (%) of inhibitor-free control, inhibitor at 5 µM", "result": 10, "unit": "%"},
      {"measurement": "hK2 Activity (%) of inhibitor-free control, inhibitor at 30 µM", "result": 33, "unit": "%"}
    ]}
  ]
}
